Results from ChEMBL document CHEMBL3886972, “Chemical entities” (2016).

Assays:
[1] = target: Serine/threonine-protein kinase mTOR (Homo sapiens, UniProt P42345); assay: LanthaScreen Kinase Activity Assay: The enzymatic mTOR activity was measured using a LanthaScreen kinase activity assay (Invitrogen). The enzyme was purchased from Invitrogen (PV4754), as well as the GFP-labelled substrate (4EBP1-GFP; PV4759) and the Tb-antip4EBP1(pThr46) antibody (PV4757). […] After 1 h incubation at room temperature, 20 mM EDTA was used to stop the reaction and terbium-labelled antibody (4 nM) added to detect phosphorylated product. The antibody associates with the phosphorylated product resulting in an increased TR-FRET value.
[2] = target: DNA-dependent protein kinase catalytic subunit (Homo sapiens, UniProt P78527); assay: ADP Hunter Plus Assay: The kinase activity was measured by using the commercial ADP Hunter Plus assay available from DiscoveRx (#90-0083), which is a homogeneous assay to measure the accumulation of ADP, a universal product of kinase activity. The enzyme, DNA-PK was purchased from Promega (#V5811). The assay was done following the manufacturer recommendations with slight modifications: Mainly the kinase buffer was replace by 15 mM HEPES, pH 7.5, 10 mM MgCl2, 20 mM NaCl, 1 mM EGTA, 0.1 mg/mL BGG, 0.02% Tween 20. The DNA-PK was assayed in a titration experiment to determine the optimal protein concentration for the inhibition assay. To calculate the […] of the Compounds, serial 1:3 dilutions of the compounds were added to the enzyme at a fixed concentration (2 U/uL). The enzyme was preincubated with the inhibitor and 200 uM DNA substrate and then ATP was added to a final 75 uM concentration. Reaction was carried out for 1 hour at 37° C. Reagent A and B were sequentially added to the wells and plates were incubated for 30 min at RT. Fluorescence counts were read in a EnVision instrument (Perkin Elmer) with the recommended settings (550 and 590 nm as excitation and emission wavelengths, respectively).

SMILES	IC50 [1] [µM]	IC50 [2] [µM]
CS(=O)(=O)C1(c2nc(-c3cccc4[nH]ccc34)nc3c2OCC2COCCN32)CCOCC1 (stereo not given)	2.72	≥ 25
CC(C)(c1nc(-c2cccc3[nH]ccc23)nc2c1OCC[C@H]1COCCN21)S(C)(=O)=O	–	10
CS(=O)(=O)C1(c2nc(-c3cccc4[nH]ccc34)nc3c2OC[C@@H]2COCCN32)CCOCC1	1.86	–
CS(=O)(=O)C1(c2nc(-c3cccc4[nH]ccc34)nc3c2OC[C@H]2COCCN32)CCOCC1	–	10
